Bioassay records deposited in PubChem by National Center for Advancing Translational Sciences (NCATS).
The list is not random: actives were taken first. Their share in the collection is about 3.7%.
Nrf2 activator: activates Nrf2 signaling. AREc32 ARE-luciferase reporter (MCF7-derived line), luminescence, 24 h. Potency, µM (highest dose often 46.1 µM), hits mostly activators. hit rate 0.31% among 410,000. AID 624171; further: nearly all actives have a fitted effect of over 65% in size
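ARE activation measured as luciferase luminescence (Steady-Glo, 30 min RT) in AREc32_Fluc cells after 24 hr compound exposure at 37 deg C, 5% CO2; cells seeded overnight at 1000/well in OPTI-MEM, 5% FBS.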
miR-21 reporter: raises the signal of a miR-21 reporter; Potency, µM (doses to about 38.3 µM); HeLa miR-21 FLuc reporter, luciferase, 48 h; AID 2288; 340,000 tested, under 10 active; active = well fitted rising curve with a large enough effect; inconclusive = small, poorly fitted or top-dose-only effect; inactive = no such curve, though single readings can be large or run the other way;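 further: miR-21 action dims this reporter so a rising signal means less miR-21 action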
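HeLa miR-21-FLuc reporter line, endogenous miR-21; 2000 cells/well in DMEM/10% FBS; compound titration up to ~40uM final, 48 h, 37 degree Celsius; luciferase detection reagent, 15 min lysis, CCD luminescence.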
IL2 activator: activators of IL-2; hit rate 0.065% among 360,000; AID 652025; activation, % (series mostly up to about 46 µM); IL-2 activation reporter assay, cell-based qHTS; stimulated with anti-CD3/CD4/CD28 beads; in transgenic mouse T cells; in the data active means activation above about 50%; inconclusive means mostly about 30% to 49%
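Unstimulated transgenic mouse T cells preincubated 60 min with compound, then stimulated with anti-CD3/anti-CD4-coated beads plus anti-CD28 for 18 h at 37 degrees C. IL-2 response read as EGFP and DsRed fluorescence by plate cytometry.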
A549 viability: A549 cytotoxicity, counter-screen for Nrf2 inhibitors; Potency, µM (series often up to 46 µM), hits mostly inhibitors; hit rate 0.16% among 390,000; A549 ARE-Fluc cells, CellTiter-Fluor viability, 18-24 h; AID 504648
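A549 ARE-Fluc cells in 5% FBS OPTI-MEM, 5000 cells/well, rested 2 h then exposed to compounds in concentration-response for 18-24 h at 37 °C. Viability by CellTiter-Fluor fluorescence (Ex 405/Em 525) after 30 min; luciferase luminescence (BugLite, 15 min, RT) read afterwards.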
Nrf2 block: blocks Nrf2 signaling. A549 ARE-Fluc reporter, luciferase luminescence, 18-24 h. Potency, µM (doses to about 46 µM), hits mostly inhibitors. hit rate 2.1% among 360,000. AID 504444; further: nearly all actives have a fitted effect of over 60% in size
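Reporter: ARE-Fluc in A549. Exposure: 18-24 h, 37 °C, 5% CO2, 5% FBS OPTI-MEM. Readouts: fluorescent cytotoxicity (CellTiter-Fluor), then luminescent Nrf2 signal after BugLite.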
ClpP mod: qHTS Assay for Activators of ClpP; ATP-dependent Clp protease proteolytic subunit (Bacillus subtilis (strain 168)), P80244; purified B. subtilis ClpP, FRET peptide cleavage, 20 min; Potency, µM (titrated, usually from 57.5 µM); hit rate 1.9% among 340,000; active means well fitted falling curve with a large enough effect; inconclusive means small, poorly fitted or top-dose-only effect; inactive means no such curve, though single readings can be large or run the other way; further: the source files actives as falling curves though it sought activators and does not explain the sign; nearly all actives have a fitted effect of over 65% in size
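Buffer: 100 mM Tris/HCl pH8, 100 mM KCl, 0.05% low protease BSA, 2.5% glycerol, 0.01% Tween-20. ClpP 10 microg/mL final; 20 min RT; delta FRET normalized to ADEP and DMSO controls.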
A number is an active result; . = inactive; ? = inconclusive; / = not tested or not shown; ! = not confirmed by another sample; [ ] = dose if it differs, or a comment. Unless noted, the call rests on the fitted dose curve; in most records, active means well fitted curve in the direction sought with a large enough effect; inconclusive means small, poorly fitted or top-dose-only effect, or another doubt; inactive means no such curve, though single readings can be large; an effect the other way counts as inactive or inconclusive.

Amino acid sequences for entries named in this document (tags omitted).
ATP-dependent Clp protease proteolytic subunit (Bacillus subtilis (strain 168)), P80244, UniProt P80244, whole entry, looked up: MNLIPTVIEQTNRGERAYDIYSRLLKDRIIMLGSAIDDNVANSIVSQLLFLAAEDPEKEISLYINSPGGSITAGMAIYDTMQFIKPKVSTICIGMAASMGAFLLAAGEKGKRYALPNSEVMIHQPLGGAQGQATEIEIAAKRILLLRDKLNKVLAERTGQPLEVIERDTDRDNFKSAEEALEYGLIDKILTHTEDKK

SMILES | Nrf2 activator | miR-21 reporter | IL2 activator | A549 viability | Nrf2 block | ClpP mod
CCCOc1ccc(C2c3c(oc4ccccc4c3=O)C(=O)N2c2nc(C)c(C(=O)OCC)s2)cc1 (centres undefined) | . | . | / | . | . | .
COc1cccc(Cn2ncc3c4sc(SC)cc4n(C)c3c2=O)c1 | / | / | / | . | ? | /
CCC12CN3CC(C)(CN(C1)C3c1c[nH]c3ccc(OC)cc13)C2=O (centres undefined) | . | . | / | . | . | .
COc1ccc(NC(=O)CSc2nnc(-c3cccs3)o2)cc1 | . | . | / | . | . | .
C=CCn1c2ccccc2c2nnc(SCCCn3c(=O)[nH]c4ccccc43)nc21 | . | . | . | . | 13µM | .
Cc1csc(NC(=O)/C=C/c2ccco2)n1 | 1.8µM | . | . | . | ? | .
Cc1csc(NC(=O)c2ccc(Cn3nc(C)c(Br)c3C)o2)n1 | . | . | . | . | 18µM | .
Cc1csc(NC(=O)c2ccco2)n1 | ? | . | . | . | . | 22µM
C=CCOC(=O)c1sc(NC(=O)c2ccco2)nc1C | 5µM | . | . | / | ? | .
O=C(O)Cc1csc(NC(=O)c2ccco2)n1 | . | . | . | . | . | .
Cc1nn(Cc2ccc(C(=O)Nc3ccccc3C(F)(F)F)o2)c(C)c1Br | . | . | . | . | ? | .
O=C(/C=C/c1ccco1)Nc1nc(-c2ccccc2)cs1 | . | . | . | . | . | .
CCOC(=O)c1sc(NC(=O)c2cc3ccccc3o2)nc1C | . | . | . | . | ? | .
Cc1ccccc1NC(=S)NC(=O)/C=C/c1ccco1 | 18µM | . | . | . | ? | .
COc1ccc(N2CCN(C(=O)c3cnc(N4CCOCC4)c4ccccc34)CC2)cc1 | . | . | / | . | / | .
COc1ccc(Cl)cc1NC(=O)COC(=O)c1c(-c2ccccc2)noc1C | . | / | . | . | 10µM | .
CCN1CCN(c2ccc(S(=O)(=O)N3CCCCC3)cc2NC(=O)c2cc3ccccc3o2)CC1 | . | / | . | . | . | 16µM
CN1CCN(c2ccc(S(=O)(=O)N3CCCCC3)cc2NC(=O)c2ccc3ccccc3c2)CC1 | . | . | . | . | . | 20µM
CC1CN(S(=O)(=O)c2cccc(C(=O)Nc3ccccc3N3CCCCC3)c2)CC(C)O1 (centres undefined) | . | / | . | ? | 16µM | .
Cc1ccc(S(=O)(=O)N2CCCCC2)cc1NC(=O)c1cc2ccccc2o1 | . | / | . | . | . | .
Cc1ccccc1C(=O)Nc1cc(S(=O)(=O)N2CCCCC2)ccc1N1CCN(C)CC1 | . | . | . | . | ? | .
CC1CN(S(=O)(=O)c2cccc(C(=O)N=c3sccn3C)c2)CC(C)O1 (centres undefined) | . | / | . | . | 12µM | .
O=c1ccc(/C=C/c2ccccc2)nn1Cc1ccccc1Cl | . | . | . | . | . | ?
O=c1ccc(/C=C/c2ccccc2)nn1Cc1ccc(Cl)cc1Cl | . | . | . | . | / | 28µM
Cc1ccc(/C=C/c2ccc(=O)n(Cc3ccc(Cl)cc3Cl)n2)cc1 | . | . | . | . | / | 3.2µM
SMILES | Nrf2 activator | miR-21 reporter | IL2 activator | A549 viability | Nrf2 block | ClpP mod
Cc1c(Cl)cccc1NS(=O)(=O)c1cc2c(cc1F)NC(=O)CC2 | / | / | / | . | ? | /
CCOc1ccc(-c2nnc(SCC(=O)NCCC(C)C)nc2-c2ccc(OCC)c(OC)c2)cc1OC | . | . | / | . | / | 16µM
CCOc1ccc(-c2nc(CSCC(=O)NCCN3CCOCC3)c(C)o2)cc1 | . | . | . | . | . | 32µM
COc1ccc(-c2nc(CSCC(=O)NCCC(C)C)c(C)o2)cc1OC | . | . | / | . | . | 28µM
COc1ccc(-c2nc(CSCC(=O)NCCc3ccccc3)c(C)o2)cc1 | . | . | / | . | ? | 32µM
CCOc1ccc(-c2nnc(SCC(=O)NCCc3ccccc3)nc2-c2ccc(OCC)c(OC)c2)cc1OC | . | . | / | ? | / | .
COc1ccc(CCNC(=O)CSCc2nc(-c3ccc(OC)c(OC)c3)oc2C)cc1OC | . | . | / | . | ? | ?
COc1cc(Cl)c(C)cc1NC(=O)C(OC(=O)CNC(=O)c1ccccc1)c1ccccc1 (centres undefined) | / | / | / | . | . | /
Oc1ccc(Nc2ccccc2F)c2cccnc12 | / | / | / | . | ? | /
CCOC(=O)Nc1ccc(=O)n(Cc2c(Cl)cccc2Cl)c1 | . | . | . | . | ? | 28µM
CCC(=O)N1CCc2cc(Br)cc(S(=O)(=O)N3CCC(C(=O)Nc4ccccc4F)CC3)c21 | . | . | / | . | 13µM | .
CCC(=O)N1CCc2cc(Br)cc(S(=O)(=O)N3CCC(C(=O)NC(C)(C)C)CC3)c21 | . | . | . | . | . | .
CCOCCCNC(=O)Cn1nc(CC)n2c(cc3c(OC)cccc32)c1=O | . | . | / | . | . | .
COc1ccccc1Nc1nn2c(=O)c3ccc(C(=O)NC4CCCCC4)cc3nc2s1 | . | . | / | . | . | .
CCN(CC)c1ccc(-c2nn3c(-c4n[nH]c5c4CCC5)nnc3s2)cc1 | . | . | . | ? | / | 28µM
CN(C)c1ccc(C(=O)N/N=C/c2cc(Br)cc(Br)c2O)cc1 | . | . | . | . | 13µM | /
Oc1ccc(Cl)cc1CNc1cnc2ccccc2c1 | . | . | . | . | . | .
C=CCc1cccc(CNc2cnc3ccccc3c2)c1O | . | . | . | . | 23µM | .
Oc1ccccc1CNc1cnc2ccccc2c1 | ? | . | . | . | ? | 28µM
NS(=O)(=O)c1ccc(N=Nc2c[nH]c(=O)c(O)c2)cc1 | . | . | . | 23µM | . | /
COc1cccc(OC)c1-c1nnc(-c2cn(C)c3ccccc23)o1 | . | . | . | . | . | 11µM
COc1ccccc1-c1nnc(-c2ccc(C)cc2)o1 | . | / | . | . | ? | /
CCCCCn1c(=O)[nH]c2cc(C(=O)NCc3ccccc3)ccc2c1=O | . | . | / | . | .[9.27 µM] | .
CCCCCn1c(=O)[nH]c2cc(C(=O)N3CCN(Cc4ccc5c(c4)OCO5)CC3)ccc2c1=O | . | . | . | ? | 0.82µM | .
CCCCCn1c(=O)[nH]c2cc(C(=O)O)ccc2c1=O | . | . | . | . | . | 22µM
COc1ccc(-n2c(=O)[nH]c3cc(C(=O)NCCc4ccccc4)ccc3c2=O)cc1OC | . | . | . | . | 13µM! | .
COCCn1c(=O)[nH]c2cc(C(=O)NCCN3CCN(c4ccccc4F)CC3)ccc2c1=O | . | . | . | . | . | ?
COCCn1c(=O)[nH]c2cc(C(=O)NCCCN3CCN(c4ccc(F)cc4)CC3)ccc2c1=O | . | . | . | . | . | 28µM
Cc1ccc(O)c(NC(=O)COCc2cc(-c3ccco3)on2)c1 | ? | . | / | . | . | .
